Counter-ions that a name gives are not always drawn.
Molecular target: system LAT1 transporter of the blood–brain barrier (Rattus norvegicus, UniProt Q63016)
Test: in situ rat brain perfusion: inhibition of L-[14C]-leucine uptake into rat brain
Details: read-out: Ki for inhibition of the uptake of L-[14C]-leucine into rat brain via the blood–brain barrier, in vivo

Protein sequences, listed by entry. Tags and fused reporters are not part of them. Lines headed by an entry give the natural chain unless they say otherwise; changes in a name come on top.
UniProt Q63016: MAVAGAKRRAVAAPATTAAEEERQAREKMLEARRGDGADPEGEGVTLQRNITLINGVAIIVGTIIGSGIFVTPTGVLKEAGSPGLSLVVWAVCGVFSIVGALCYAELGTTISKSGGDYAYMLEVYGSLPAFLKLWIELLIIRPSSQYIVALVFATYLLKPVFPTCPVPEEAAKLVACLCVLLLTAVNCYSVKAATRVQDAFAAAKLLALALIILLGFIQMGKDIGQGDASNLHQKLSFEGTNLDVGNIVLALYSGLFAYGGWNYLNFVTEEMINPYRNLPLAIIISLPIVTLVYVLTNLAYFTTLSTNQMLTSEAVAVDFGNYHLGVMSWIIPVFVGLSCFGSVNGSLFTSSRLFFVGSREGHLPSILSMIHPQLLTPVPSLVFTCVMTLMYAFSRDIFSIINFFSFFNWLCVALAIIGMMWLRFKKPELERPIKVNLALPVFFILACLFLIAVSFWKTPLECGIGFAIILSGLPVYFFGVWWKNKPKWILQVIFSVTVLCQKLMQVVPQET

| SMILES | Ki [µM] |
| --- | --- |
| NC1(C(=O)O)CCc2cccc(N(CCCl)CCCl)c2C1 (racemic) [5d, (±)-2-amino-(bis-2-chloroethyl)-8-amino-1,2,3,4-tetrahydro-2-naphthoic acid dihydrochloride salt] | 252 ± 44 |
| NC1(C(=O)O)CC2CC1c1ccccc12 (racemic) [(±)-2-Aminobenzo-bicyclo-[2.2.1]heptane-2′-exo-carboxylic acid] | 26 ± 1 |
| NC1(C(=O)O)Cc2ccccc2C1 [(±)-2-Aminoindane-2 carboxylic acid] | 12.5 ± 1.1 |
| N[C@@H](Cc1ccc(N(CCCl)CCCl)cc1)C(=O)O [compound 2, Melphalan, reference compound] | 55 ± 4 |

Reference: paper PMC3725995 (Bioorganic & medicinal chemistry letters, 2010)
